Key:
Homo sapiens = species on record: Homo sapiens; test: Selectivity index, ratio of IC50 for human OX2R expressed in CHO cells to IC50 for human OX1R expressed in CHO cells; assay type: cell-based
[1] = molecular target: Orexin/Hypocretin receptor type 1 (Homo sapiens, UniProt O43613); test: Antagonist activity at human OX1R expressed in CHO cells assessed as reduction in [Ala6,12]orexin-A-induced intracellular Ca2+ mobilization incubated for 30 mins by Fluo-4AM dye based fluorescence assay; assay type: functional, cell-based
Orexin receptor type 2 = Orexin receptor type 2 (Homo sapiens, UniProt O43614); test: Antagonist activity at human OX2R expressed in CHO cells assessed as reduction in [Ala6,12]orexin-A-induced intracellular Ca2+ mobilization incubated for 30 mins by Fluo-4AM dye based fluorescence assay; assay type: functional, cell-based
Outline: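 CHO cells stably expressing human OX2R, seeded a day ahead, loaded with 0.15 μM Fluo-4AM (HBSS pH 7.4, 20 mM HEPES, 0.1% BSA, 2.5 mM probenecid) for 1 h at 37 °C. Compound given 30 min at room temperature, then 1 nM final [Ala6,12]orexin-A. Ca2+ fluorescence read; IC50 by nonlinear regression; 2–4 runs, duplicate or triplicate.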

Sequences of proteins named here, by UniProt entry; tags and fusion partners are left off.
UniProt O43613, whole entry: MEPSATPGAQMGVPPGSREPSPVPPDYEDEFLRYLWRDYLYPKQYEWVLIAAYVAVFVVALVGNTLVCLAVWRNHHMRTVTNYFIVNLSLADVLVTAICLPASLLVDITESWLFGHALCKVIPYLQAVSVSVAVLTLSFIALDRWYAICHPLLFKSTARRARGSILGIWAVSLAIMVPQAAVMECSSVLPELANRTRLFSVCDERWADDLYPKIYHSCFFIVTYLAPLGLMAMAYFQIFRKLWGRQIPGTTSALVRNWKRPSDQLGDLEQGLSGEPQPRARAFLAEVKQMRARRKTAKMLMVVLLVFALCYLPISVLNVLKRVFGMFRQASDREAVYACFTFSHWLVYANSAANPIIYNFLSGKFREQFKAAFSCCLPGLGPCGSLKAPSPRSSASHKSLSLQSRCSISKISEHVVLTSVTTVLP
UniProt O43614, whole entry: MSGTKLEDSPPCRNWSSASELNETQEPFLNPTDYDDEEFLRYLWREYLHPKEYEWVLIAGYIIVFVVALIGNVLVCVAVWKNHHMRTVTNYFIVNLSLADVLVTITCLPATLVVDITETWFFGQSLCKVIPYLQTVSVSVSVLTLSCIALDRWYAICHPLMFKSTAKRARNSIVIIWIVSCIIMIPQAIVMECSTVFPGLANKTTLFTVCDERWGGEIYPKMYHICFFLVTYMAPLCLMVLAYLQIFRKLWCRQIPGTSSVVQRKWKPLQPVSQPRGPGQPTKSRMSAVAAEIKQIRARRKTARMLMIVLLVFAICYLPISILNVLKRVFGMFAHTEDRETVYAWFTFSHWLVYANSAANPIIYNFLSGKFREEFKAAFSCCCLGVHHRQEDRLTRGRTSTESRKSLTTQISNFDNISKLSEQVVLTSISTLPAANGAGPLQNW

SMILES	Ratio IC50 (Homo sapiens)	IC50 [1]	IC50 (Orexin receptor type 2)
CCN(C(=O)c1cc(F)ccc1-c1ncccn1)[C@@H](C)Cn1nnc(-c2ccc(F)cc2)n1	265	0.00201 µM	0.532 µM
CCN(C(=O)c1nc(C)ccc1-c1ncccn1)[C@@H](C)Cn1nnc(-c2ccc(F)cc2)n1	–	–	1.31 µM

Source: ChEMBL document CHEMBL4043177 (Bioorg Med Chem, 2017)
